Results published in ChEMBL document CHEMBL1140479, “NO donors. Part 16: investigations on structure-activity relationships of organic mononitrates reveal 2-nitrooxyethylammoniumnitrate as a high potent vasodilator” (Bioorg Med Chem Lett, 2007).

Test: Vasodilatory effect in pig pulmonary artery assessed as inhibition of PGF2-alpha-induced contraction

SMILES: O=[N+]([O-])OCCBr
- EC50: 377 nM
